Results from US11845726B2.

Experiment: Mouse pharmacokinetic (PK) evaluation of drug metabolism to psilocin

CN(C)CCc1c[nH]c2cccc(OC(=O)OCc3ccccc3)c12 [B(II)]
administered compound in plasma (1 mg/kg oral): neither B(II) nor E(VI) were detected in plasma
psilocin levels, B(II) compared with E(VI) (oral dosing): higher psilocin levels in B(II)-treated mice
stability in plasma (plasma): comparatively stable in plasma
